Assay results published in ChEMBL document CHEMBL1124741, “Probes for narcotic receptor mediated phenomena. 17. Synthesis and evaluation of a series of trans-3,4-dichloro-N-methyl-N-[2-(1-pyrrolidinyl)cyclohexyl]benzeneacet amide (U50,488) related isothiocyanate derivatives as opioid receptor affinity ligands” (1990).

By UniProt entry, the sequences of proteins in these tests, tags left out.
UniProt P41144, whole entry: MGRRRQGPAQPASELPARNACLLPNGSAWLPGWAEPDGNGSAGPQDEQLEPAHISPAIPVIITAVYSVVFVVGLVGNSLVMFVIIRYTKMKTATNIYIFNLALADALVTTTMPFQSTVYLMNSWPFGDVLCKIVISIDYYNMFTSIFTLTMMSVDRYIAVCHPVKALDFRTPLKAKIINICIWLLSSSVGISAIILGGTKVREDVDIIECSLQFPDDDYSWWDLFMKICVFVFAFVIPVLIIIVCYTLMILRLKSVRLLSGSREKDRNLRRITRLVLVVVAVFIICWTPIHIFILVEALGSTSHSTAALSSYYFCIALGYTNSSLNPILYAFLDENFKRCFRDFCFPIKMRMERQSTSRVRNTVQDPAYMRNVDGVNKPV

Molecular target: Kappa-type opioid receptor (Cavia porcellus) (UniProt P41144)
Assay: In vitro inhibition of [3H]U-69593 binding to Opioid receptor kappa 1 of guinea pig brain.
Details: concentration not given here

Row | SMILES | inhibition
1 | CN(C(=O)[C@@H](N)c1ccccc1)[C@@H]1CCCC[C@H]1N1CCCC1 | 120%
2 | CN(C(=O)[C@@H](N)c1ccccc1)[C@H]1CCCC[C@@H]1N1CCCC1 | 85.6%
3 | CN(C(=O)[C@H](N)c1ccccc1)[C@@H]1CCCC[C@H]1N1CCCC1 | 86.5%
4 | CN(C(=O)[C@H](N)c1ccccc1)[C@H]1CCCC[C@@H]1N1CCCC1 | 114%
